Measurements from patent publication US8362236B2, “Macrocyclic compound” (Chugai Seiyaku Kabushiki Kaisha, priority 2007, dated 2013).

target: T1, Human HSP90 alpha (Homo sapiens, UniProt P07900); test: Assay for the activity of inhibiting HSP90 enzyme (ATPase, malachite green); type: biochemical; conditions: Enzyme-inhibiting activity (IC50, μM) Human HSP90α, purified human HSP90 alpha, 1 mM ATP added, 37° C. for two hours, OD655
T1 construct: His tag (inferred from purification on a HisPrep FF column); made in house; host or cells: E. coli BL21 codon plus (Stratagene)

IC50 [µM]	SMILES
1.5	Cc1cc(C)c2cc1C(=O)NCCCCCOc1cccc(c1)Sc1cc-2nc(N)n1 [Compound 20, 4-amino-22,24-dimethyl-13-oxa-7-thia-3,5,19-triazatricyclo[19.3.1.1^2,6.1^8,12]heptacosa-1(24),2(26),3,5,8(27),9,11,21(25),22-nonaen-20-one]
2.7	Cc1cc(C)c2cc1C(=O)NCCCCOc1cccc(c1)Sc1cc-2nc(N)n1 [Compound 19, 4-amino-21,23-dimethyl-13-oxa-7-thia-3,5,18-triazatricyclo[18.3.1.1^2,6.1^8,12]hexacosa-1(23),2(25),3,5,8(26),9,11,20(24),21-nonaen-19-one]
0.8	Cc1cc(C)c2cc1C(=O)NCCCCCNC(=O)CCSc1cc-2nc(N)n1 [Compound 1, 4-amino-20,22-dimethyl-7-thia-3,5,11,17-tetraazatricyclo[17.3.1.1^2,6]tetracosa-1(22),2(24),3,5,19(23),20-hexaene-10,18-dione]
3.4	Cc1cc(C)c2cc1C(=O)NCCCCNC(=O)CCSc1cc-2nc(N)n1 [Compound 6, 4-amino-19,21-dimethyl-7-thia-3,5,11,16-tetraazatricyclo[16.3.1.1^2,6]tricosa-1(21),2(23),3,5,18(22),19-hexaene-10,17-dione]
1.9	Cc1ccc2cc1-c1cc(nc(N)n1)Sc1cccc(c1)OCCCCCO2 [Compound 25, 4-amino-23-methyl-13,19-dioxa-7-thia-3,5-diazatricyclo[18.3.1.1^2,6.1^8,12]hexacosa-1(24),2(25),3,5,8(26),9,11,20,22-nonaene]
